Drawing on PubChem BioAssay (NCI), this text covers growth for 14 compounds.

SMILES strings stand for the structures. The list shows a part of the results, in another mix than the full data.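 Interpretation: 100, growth as untreated; towards 0, rising growth inhibition; 0, no net growth; 0 to -100, cell death. Compounds scoring below 10 were considered active.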 Calls of active or inactive are those of the source.

Test systems include NCI/ADR-RES ovarian; T-47D breast; BT-549 breast; MDA-MB-435 melanoma; SW-620 colon; MCF7 breast; HCT-116 colon; HCC-2998 colon; KM12 colon.
Common to all, as to test: NCI-60 one-dose screen, 48 h (100 = growth as untreated, 0 = no growth, -100 = all killed)
What all share (details): 10 µM unless noted

For the compound `O=C(O)CCc1ccc(N(CCCl)CCCl)cc1`, the growth is inactive: 99.9% in the assay on NCI/ADR-RES ovarian; inactive: 108% with T-47D breast; inactive: 87.8% in the assay with BT-549 breast; inactive: 105% in the assay on MDA-MB-435 melanoma; inactive: 85.1% with SW-620 colon; inactive: 90.5% in the assay with MCF7 breast. The results for the growth in the assay with HCT-116 colon, in the assay with HCC-2998 colon and with KM12 colon were inactive: 105%, inactive: 101% and inactive: 104%, respectively.

With `O=[As](O)(O)c1ccc(I)cc1`, the growth in the assay on NCI/ADR-RES ovarian was inactive: 110%; with T-47D breast, inactive: 104%; in the assay on BT-549 breast, inactive: 95.6%; in the assay with MDA-MB-435 melanoma, inactive: 105%; in the assay on SW-620 colon it was inactive: 104%; with MCF7 breast, inactive: 90.5%. Besides, the figures for the growth with HCT-116 colon, with HCC-2998 colon and with KM12 colon were inactive: 105%, inactive: 118% and inactive: 104%, respectively.

For `CCP(Cl)(Cl)(Cl)CC`, the growth is inactive: 102% with NCI/ADR-RES ovarian; inactive: 88.9% with T-47D breast; inactive: 93% with BT-549 breast; inactive: 87.4% with MDA-MB-435 melanoma; inactive: 102% with SW-620 colon; inactive: 86.4% with MCF7 breast. Moreover, the growth was inactive: 101% in the assay with HCT-116 colon, inactive: 101% in the assay on HCC-2998 colon and inactive: 104% in the assay with KM12 colon.

With `Cn1c(=O)c2[nH]c(N(CCCl)CCCl)nc2n(C)c1=O`, the growth in the assay with NCI/ADR-RES ovarian was inactive: 106%; with T-47D breast it was inactive: 91.1%; with BT-549 breast, inactive: 95.3%; with MDA-MB-435 melanoma it was inactive: 109%; with SW-620 colon it was inactive: 101%; with MCF7 breast, inactive: 96.7%. Further, the figures for the growth in the assay on HCT-116 colon, with HCC-2998 colon and with KM12 colon were inactive: 97.1%, inactive: 98.8% and inactive: 94.7%, respectively.

With `O=C1NC(c2ccccc2)(c2ccccc2)C(=O)N1P(=O)(Oc1ccccc1)Oc1ccccc1`, the growth in the assay on NCI/ADR-RES ovarian is inactive: 102%; with T-47D breast, inactive: 91.8%; in the assay on BT-549 breast it was inactive: 101%; with MDA-MB-435 melanoma, inactive: 99.8%; in the assay with SW-620 colon, inactive: 103%; with MCF7 breast it was inactive: 86.4%. In addition, the growth is inactive: 104% with HCT-116 colon, inactive: 107% in the assay on HCC-2998 colon and inactive: 97% in the assay on KM12 colon.

Regarding `N/C(=N\N=C\c1ccc([N+](=O)[O-])o1)N[N+](=O)[O-]`, the growth is inactive: 101% in the assay with NCI/ADR-RES ovarian; inactive: 92.1% in the assay on T-47D breast; inactive: 104% in the assay with BT-549 breast; inactive: 101% in the assay with MDA-MB-435 melanoma; inactive: 100% in the assay with SW-620 colon; inactive: 80.3% with MCF7 breast. The growth with HCT-116 colon was inactive: 95.3%; in the assay with HCC-2998 colon it was inactive: 118%; with KM12 colon, inactive: 94.7%.

In the case of `Cc1ccc(S(=O)(=O)N(CCCN)CCCc2c(C)nc(N)[nH]c2=O)cc1`, the growth with NCI/ADR-RES ovarian was inactive: 106%; in the assay on T-47D breast, inactive: 107%; in the assay with BT-549 breast it was inactive: 98.1%; with MDA-MB-435 melanoma it was inactive: 101%; with SW-620 colon, inactive: 100%; with MCF7 breast, inactive: 91.8%. The figures for the growth in the assay on HCT-116 colon, in the assay with HCC-2998 colon and in the assay on KM12 colon were inactive: 97.1%, inactive: 117% and inactive: 113%, respectively.

Turning to `CCCNC(=O)c1ccc(N(CCCl)CCCl)cc1`, the growth with NCI/ADR-RES ovarian is inactive: 92.6%; in the assay with T-47D breast, inactive: 89.4%; in the assay with BT-549 breast, inactive: 97.6%; in the assay with MDA-MB-435 melanoma it was inactive: 110%; in the assay on SW-620 colon, inactive: 91.1%; with MCF7 breast it was inactive: 82.6%. For the same compound, the growth in the assay with HCT-116 colon was inactive: 106%; in the assay on HCC-2998 colon, inactive: 106%; with KM12 colon, inactive: 110%.

In the case of `CCCCCCCNP(=S)(Cl)Cl`, the growth in the assay on NCI/ADR-RES ovarian was inactive: 103%; in the assay with T-47D breast, inactive: 87.4%; with BT-549 breast, inactive: 102%; in the assay with MDA-MB-435 melanoma, inactive: 98.1%; with SW-620 colon, inactive: 104%; in the assay on MCF7 breast, inactive: 94.6%. For the same compound, the growth in the assay on HCT-116 colon is inactive: 105%; in the assay on HCC-2998 colon, inactive: 92.6%; in the assay on KM12 colon, inactive: 105%.

Consider `O=C1CSC(C(Cl)(Cl)Cl)N1c1ccc(Cl)cc1` (stereo unspecified), for which the growth with NCI/ADR-RES ovarian was inactive: 99.8%; with T-47D breast it was inactive: 90.8%; in the assay on BT-549 breast, inactive: 101%; with MDA-MB-435 melanoma, inactive: 98.8%; in the assay on SW-620 colon, inactive: 103%; with MCF7 breast, inactive: 99.6%. In addition, the growth is inactive: 91.5% in the assay with HCT-116 colon, inactive: 108% in the assay with HCC-2998 colon and inactive: 95.5% with KM12 colon.

In the case of `CCOC(=O)Nc1cccc([As](=O)(O)O)c1`, the growth with NCI/ADR-RES ovarian was inactive: 116%; in the assay with T-47D breast it was inactive: 95.9%; with BT-549 breast, inactive: 95.3%; in the assay on MDA-MB-435 melanoma, inactive: 107%; with SW-620 colon it was inactive: 92.5%; in the assay on MCF7 breast, inactive: 92.3%. The growth with HCT-116 colon was inactive: 91.9%; with HCC-2998 colon it was inactive: 112%; in the assay with KM12 colon, inactive: 96.4%.

Regarding `COc1cc([N+](=O)[O-])c(Nc2ccc(Cl)cc2[N+](=O)[O-])c([N+](=O)[O-])c1`, the growth in the assay on NCI/ADR-RES ovarian was inactive: 55.9%; in the assay with T-47D breast it was inactive: 50.4%; with BT-549 breast it was active: 3.56%; with MDA-MB-435 melanoma, inactive: 90%; with SW-620 colon it was inactive: 77%; with MCF7 breast, inactive: 45.3%. For the same compound, the growth was inactive: 56% in the assay on HCT-116 colon, inactive: 75.4% in the assay with HCC-2998 colon and inactive: 84.8% in the assay with KM12 colon.

Consider `N#CC(C#N)=C(C#N)N(CCCl)CCCl`, for which the growth in the assay on NCI/ADR-RES ovarian was inactive: 103%; in the assay on T-47D breast, inactive: 96.7%; in the assay with BT-549 breast, inactive: 116%; with MDA-MB-435 melanoma, inactive: 105%; in the assay with SW-620 colon, inactive: 98.1%; in the assay on MCF7 breast it was inactive: 86.5%. The figures for the growth in the assay with HCT-116 colon, in the assay on HCC-2998 colon and in the assay on KM12 colon were inactive: 99.7%, inactive: 100% and inactive: 96.5%, respectively.

As for `O=Cc1sc(N(CCCl)CCCl)nc1Cl`, the growth in the assay with NCI/ADR-RES ovarian is inactive: 102%; with T-47D breast it was inactive: 88.3%; in the assay on BT-549 breast, inactive: 96.2%; in the assay with MDA-MB-435 melanoma, inactive: 102%; with SW-620 colon it was inactive: 111%; in the assay on MCF7 breast, inactive: 98.5%. In addition, the growth in the assay on HCT-116 colon was inactive: 91.3%; in the assay with HCC-2998 colon, inactive: 122%; with KM12 colon it was inactive: 106%.
